Yeast mating assay B: variants of the scFv Ab-14

Target peptide (SARS-CoV-2 spike, HR2 region): PDVDLGDISGINAS

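The parent was found by panning a naive human phage display library on the peptide. The variants were designed computationally from a first round of random CDR variants and then made and measured. Group labels follow the data file (Rand: our label for a block that the file lists under HC and that is probably the random mutants of the ten best first-round binders; En: ensemble of fine-tuned language models; HC: hill climbing; Gen: genetic algorithm; Gibbs: Gibbs sampling; a sequence that several methods proposed may carry one label only). The scFvs were displayed on barcoded MATa yeast, the peptide on MATalpha yeast. Pairs that bind mate more often; barcode pairs of the diploids are counted by sequencing. Each replicate has its own calibration line, from reference interactions of the BCL2 family. There are six technical replicates.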

Each scFv is VH, the linker GGGGSGGGGSGGGGS, VL, as in the parent Ab-14, and differs from it in the CDRs of the heavy chain only.
VH: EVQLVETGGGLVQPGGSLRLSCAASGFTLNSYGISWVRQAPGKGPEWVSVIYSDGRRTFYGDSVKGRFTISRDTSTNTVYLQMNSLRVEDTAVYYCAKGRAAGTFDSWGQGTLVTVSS
VL: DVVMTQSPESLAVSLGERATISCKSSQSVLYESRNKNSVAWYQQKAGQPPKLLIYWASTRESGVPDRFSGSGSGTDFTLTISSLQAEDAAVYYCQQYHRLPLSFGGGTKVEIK

Each variant is given by its three heavy chain CDRs, as the data file delimits them; those of the parent are GFTLNSYGIS, VIYSDGRRTFYGDSVK, GRAAGTFDS.
Variants here have more than six changes.
Values are log10 of the apparent Kd in nM; lower means stronger binding.
A mean of the replicates is given; it leaves out those without a signal.
"nd" means that the variant was in the library but no mating with the target was seen in that replicate; the authors take this as a sign of poor binding, and no number exists.
The range of this assay differs from that of the first round, and the authors advise against merging the two.

CDR-H1,CDR-H2,CDR-H3,group,"replicates, log10 nM","mean, log10 nM"
GFDLDEYGIS,VIYADGKRTAYADKVK,GENAGTFDV,En_Gen,nd / nd / nd / nd / nd / nd,nd
GFNLDEYGIS,VIYADGVRTAYVDKVK,GFGQVDSLI,En_Gibbs,nd / nd / nd / nd / nd / nd,nd
GFDLNEYGIS,VIYADGVRTAYADSVK,GKNAGTFDI,En_Gen,-0.14 / -0.52 / -0.47 / -0.85 / -0.84 / -0.18,-0.50
GFDLNEYGIS,VIYADGMRTAYVDDVK,GQNAGTFDV,En_Gen,-0.44 / -0.34 / -0.25 / -0.23 / -0.15 / -0.16,-0.26
GFDLNEYGIS,VIYADGVRTSYADSVK,GNVAGTFDL,En_Gen,-0.41 / -0.28 / -0.31 / -0.27 / -0.31 / -0.27,-0.31
GFDLDEYGIS,VIYADGVRSQYHDSVK,GTGGFDIEL,En_Gibbs,2.75 / nd / nd / nd / nd / nd,2.75
GFNLEEYGIS,VIYADGSRSSYIEDVK,GQWNADFIV,En_Gibbs,nd / nd / nd / nd / nd / nd,nd
GFDLNEYGIS,VIYADGKRTAYADSVK,GQVAGTFDV,En_Gen,-0.97 / -0.75 / -1.10 / -1.01 / -1.26 / -0.94,-1.01
GDKLEDYGIS,VIYADGRRRAYVENVK,GVYAGYFDV,En_Gibbs,nd / nd / nd / nd / nd / nd,nd
GFDLNEYGIS,VIYADGKRTFYSDSVK,GEAAGTFDQ,En_HC,-0.36 / -0.49 / -0.51 / -0.63 / -0.62 / -0.46,-0.51
GFQIDEYGIS,VIYADGLRTAYSQAVK,GMDTGLFMD,En_Gibbs,nd / nd / nd / nd / nd / nd,nd
GYDIEEYGIS,VIYADGKRNAYANSFK,GKWAGTFDD,En_Gibbs,nd / nd / nd / 2.23 / 1.14 / nd,1.68
GFDLNEYGIS,VIYADGMRTSYADSVK,GTNAGTFDI,En_Gen,-0.31 / -0.16 / -0.35 / -0.14 / 0.09 / -0.50,-0.23
GFNLNEYGIS,VIYADGHRRAYVDNVK,GHLGGTFSM,En_Gibbs,0.25 / 0.34 / -0.39 / -0.30 / -0.53 / 0.53,-0.01
GYSLEEYGIS,VIYADGRRTAYADNVK,GMSGNDGMF,En_Gibbs,nd / nd / nd / nd / nd / nd,nd
GFDLKEYGIS,VIYADGMRSVYINSFK,GDSAGIINF,En_Gibbs,1.47 / 1.24 / nd / 1.35 / 3.04 / 0.85,1.59
GFDLNEYGIS,VIYADGSRTAYADDVK,GENAGTFDI,En_Gen,0.65 / -0.19 / -0.57 / -0.07 / 0.05 / 0.31,0.03
GFDLDEYGIS,VIYADGMRTAYSDSVK,GEVAGTFDT,En_Gen,1.55 / 2.12 / 0.98 / 1.20 / 0.78 / 1.06,1.28
GFSLEEYGIS,VIYADGKRTAYVNAVK,GTWGAFGLG,En_Gibbs,nd / nd / nd / nd / nd / nd,nd
GFDLNEYGIS,VIYADGMRTFYADSVK,GNLAGTFDQ,En_HC,1.31 / 0.85 / 1.17 / 0.69 / 0.81 / 0.86,0.95
GFDLNEYGIS,VIYADGMRTVYADSVK,GETAGTFDI,En_Gen,-0.53 / -0.56 / -0.74 / -0.71 / -0.58 / -0.45,-0.60
GFDLDEYGIS,VIYADGMRTAYSDSVK,GEVAGTFDV,En_Gen,-0.44 / -0.42 / -0.77 / -0.66 / -0.59 / -0.61,-0.58
GFDLDQYGIS,VIYADGMRSVYADDVK,GHEGGIFLV,En_Gibbs,nd / nd / nd / nd / nd / nd,nd
GMNLDEYGIS,VIYADGKRCQYANTVK,GELAGFFML,En_Gibbs,nd / nd / nd / nd / nd / nd,nd
GFDLEEYGIS,VIYADGMRTAYSDSVK,GNVAGTFDQ,En_Gen,0.00 / -0.28 / -0.51 / -0.32 / -0.45 / -0.30,-0.31
GFDLNEYGIS,VIYADGVRTFYADSVK,GEHAGTFDI,En_HC,0.28 / 0.29 / 0.16 / 0.04 / 0.35 / 0.37,0.25
GFDLNEYGIS,VIYADGKRTAYANSVK,GNVAGTFDL,En_Gen,-0.43 / -0.64 / -0.20 / -0.64 / -0.76 / -0.57,-0.54
GFDLNEYGIS,VIYADGVRTAYADDVK,GNVAGTFDM,En_Gen,-0.39 / -0.45 / -0.48 / -0.50 / -0.63 / -0.48,-0.49
GFTLNESGIQ,VIYSDRRRTFYTDSVK,GRFAGTFDK,Rand,nd / nd / nd / nd / nd / nd,nd
GFNLDEYGIS,VIYADGTRRYYADSVK,GDYVVVNSI,En_Gibbs,nd / nd / nd / nd / nd / nd,nd
GFDLDEYGIS,VIYADGQRTAYADSVK,GETAGTFDQ,En_Gen,-0.47 / 0.11 / -0.54 / -0.53 / 0.04 / -0.28,-0.28
GFNLNEYGIS,VIYADGNRNFYADSVK,GLHANFFDI,En_Gibbs,nd / nd / nd / nd / nd / nd,nd
GFDLGEYGIS,VIYADGRRTAYSQSVK,GLNEGMLVI,En_Gibbs,nd / nd / nd / nd / nd / nd,nd
GFDLNEYGIS,VIYADGVRTAYANSVK,GENAGTFDV,En_Gen,0.36 / 1.09 / 1.18 / 0.46 / 0.63 / 1.20,0.82
GFDLDEYGIS,VIYADGQRTAYADDVK,GNNAGTFDV,En_Gen,-0.54 / -0.69 / -0.25 / -0.64 / -0.29 / 0.00,-0.40
GFDLNEYGIS,VIYADGVRTFYADSVK,GENAGTFDM,En_Gen,-0.07 / -0.03 / -0.27 / 0.06 / -0.49 / -0.21,-0.17
GFDLEEMGVS,VIYHDGVRKAYKQKVK,GQTAGSFDV,En_Gibbs,nd / nd / nd / nd / nd / nd,nd
GMDLEAYGIS,VIYADGVRTGYVNKVK,GDTGGMFDD,En_Gibbs,nd / nd / nd / nd / nd / nd,nd
GFDLDEYGIS,VIYADGMRTSYADSVK,GNVAGTFDI,En_Gen,-0.15 / -0.32 / -0.43 / -0.49 / -0.13 / -0.39,-0.32
GFDLDEYGIS,VIYADGQRTAYADSVK,GNEAGTFDQ,En_Gen,-0.05 / -0.07 / 0.16 / -0.07 / -0.08 / 0.15,0.01
GFDLNEYGIS,VIYADGRRTFYTDSVK,GQLAGTFDQ,En_HC,-0.35 / -0.63 / -0.63 / -0.74 / -0.69 / -0.57,-0.60
GFDLNEYGIS,VIYADGMRTYYADSVK,GEVAGTFDQ,En_Gen,0.65 / 0.97 / 1.19 / 0.74 / 0.94 / 0.25,0.79
GFDLNEYGIS,VIYADGMRTAYADSVK,GNVAGTFVQ,En_Gen,-0.72 / -0.50 / -0.82 / -0.84 / -0.51 / -0.24,-0.60
GKQLDEYGIS,VIYADGKRTHYVENVK,GQFGGNLFD,En_Gibbs,nd / nd / nd / nd / nd / nd,nd

The 6 strongest on average among those seen in every replicate, once more:

CDR-H1,CDR-H2,CDR-H3,group,"replicates, log10 nM","mean, log10 nM"
GFDLNEYGIS,VIYADGKRTAYADSVK,GQVAGTFDV,En_Gen,-0.97 / -0.75 / -1.10 / -1.01 / -1.26 / -0.94,-1.01
GFDLNEYGIS,VIYADGMRTAYADSVK,GNVAGTFVQ,En_Gen,-0.72 / -0.50 / -0.82 / -0.84 / -0.51 / -0.24,-0.60
GFDLNEYGIS,VIYADGRRTFYTDSVK,GQLAGTFDQ,En_HC,-0.35 / -0.63 / -0.63 / -0.74 / -0.69 / -0.57,-0.60
GFDLNEYGIS,VIYADGMRTVYADSVK,GETAGTFDI,En_Gen,-0.53 / -0.56 / -0.74 / -0.71 / -0.58 / -0.45,-0.60
GFDLDEYGIS,VIYADGMRTAYSDSVK,GEVAGTFDV,En_Gen,-0.44 / -0.42 / -0.77 / -0.66 / -0.59 / -0.61,-0.58
GFDLNEYGIS,VIYADGKRTAYANSVK,GNVAGTFDL,En_Gen,-0.43 / -0.64 / -0.20 / -0.64 / -0.76 / -0.57,-0.54

Empty control strains, which show no peptide, gave a signal in 1% of pairings with all heavy chain designs; the median was 2.08 and 95% of these signals were weaker than 0.84. No background was subtracted.
The authors' rule: three or more of the six replicates give a measured affinity, fewer mean a poor binder.
Of ten entries with the parent sequence, four were seen in most replicates (averages 0.34 to 2.37), three in one and three in none, so single entries are noisy.

Values reported by Li et al. 2023, doi:10.1038/s41467-023-39022-2 (FLAb copy).